Values quoted from earlier work as cited in publication PMC10694493 (Cell Reports Methods, 2023).

Details: cited from earlier work

In the case of `CSCC[C@H](NC(=O)[C@H](CC(=O)O)NC(=O)[C@H](CO)NC(=O)[C@@H](NC(=O)[C@H](CCC(=O)O)NC(=O)CNC(=O)[C@H](CC(C)C)NC(=O)[C@H](CO)NC(=O)[C@H](Cc1c[nH]c2ccccc12)NC(=O)[C@H](CO)NC(C)=O)C(C)C)C(=O)N[C@@H](C)C(=O)N[C@@H](C)C(=O)N[C@H](C(=O)N[C@@H](CCC(=O)O)C(=O)N[C@@H](C)C(=O)N[C@@H](C)C(=O)N[C@@H](CCC(=O)O)C(=O)N[C@@H](CC(C)C)C(=O)N[C@@H](CCC(=O)O)C(=O)N[C@@H](CCSC)C(=O)N[C@H](C(=O)N[C@@H](CCCNC(=N)N)C(=O)N[C@@H](CCC(N)=O)C(=O)N[C@H](C(=O)N[C@@H](CC(C)C)C(=O)N[C@@H](Cc1c[nH]cn1)C(=O)N[C@@H](C)C(N)=O)C(C)C)[C@@H](C)O)C(C)C` [P414], the membrane binding activity is given as “no membrane binding activity”.
